Laboratory results reported in patent publication US20130059362A1, “BIOSENSORS COMPRISING PROTEIN-BINDING DOMAINS AND FLUORESCENT PROTEINS” (SIGMA-ALDRICH CO., LLC, priority 2010, published 2013).

Molecular target: T1, EGFR (Homo sapiens, UniProt P00533)
T1 construct: A549 cells, which endogenously express EGFR; endogenous in cells; host or cells: A549 cells stably transfected with the TagGFP:2x(SH2)Grb2 biosensor (a TurboGFP:2x(SH2)Grb2 biosensor for the heregulin test)
Assay: Inhibition of EGF-induced TagGFP:2×(SH2)Grb2 biosensor relocalization
Format: cell-based

Translocation of TagGFP:2×(SH2)Grb2 to the plasma membrane (1 μM AG 1478, then 1 μg/mL EGF, 3 min following EGF treatment): blocked
Internalization of TagGFP:2×(SH2)Grb2 (1 μM AG 1478, then 1 μg/mL EGF, 50 min following EGF treatment): also blocked
Relocalization of the TagGFP:2×SH2Grb2 biosensor (FIG. 7, absence or presence of 1 μg/mL of EGF): inhibits relocalization
Structure (SMILES): COc1cc2ncnc(Nc3cccc(Cl)c3)c2cc1OC [AG 1478, tyrphostin AG 1478]
